From patent US5294609A, “DNA gyrase inhibitors and pharmaceutical preparations therefor” (Hoffmann-LaRoche Inc., priority 1991, dated 1994) come the findings set out here.

One experiment relates to E. coli DC2. The experiment can be described thus: Antibacterial activity in vitro (MIC, agar dilution). In kind it is cell-based. The following applies: Escherichia coli, agar dilution (BB2 + 1% Isovitalex + 7.5% sheep blood + metadione), inoculum 10^4 CFU/spot, read-out: minimum inhibitory concentration (MIC). From the text: (§1) In the following table there are complied the minimum inhibitory concentrations (MIC; μg/ml) of some representative compounds of formula I against a series of pathogenic microorganisms.
(§2) Agar dilution (BB2 + 1% Isovitalex + 7.5% sheep blood + metadione),
(§3) Inoculum: 10^4 CFU/spot;

A further experiment concerns N. meningitidis 69480. The experiment is described as above. In kind it is cell-based. The following applies: Neisseria meningitidis, agar dilution (BB2 + 1% Isovitalex + 7.5% sheep blood + metadione), inoculum 10^4 CFU/spot, read-out: minimum inhibitory concentration (MIC).
Description: as §1, §2, §3
Background: In agar dilution the substance is mixed into plates at graded concentrations.

Consider `COC(=O)[C@@H]1CSCc2c(O)cc(OC)c(C)c2C(=O)OC[C@H](O)C(=O)N1` [Example 41, methyl (4R,7S)-1,3,4,5,6,7,8,10-octahydro-7,14-dihydroxy-12-methoxy-11-methyl-6,10-dioxo-9,2,5-benzoxathiaazacyclododecine-4-carboxylate], for which the MIC in the experiment with E. coli DC2 is 64 µg/mL.
For `CCOC(=O)[C@@H]1CSCc2c(O)cc(OC)c(C)c2C(=O)OC[C@H](NC=O)C(=O)N1` [Example 69, ethyl (4R,7S)-7-formamido-1,3,4,5,6,7,8,10-octahydro-14-hydroxy-12-methoxy-11-methyl-6,10-dioxo-9,2,5-benzoxathiaazacyclododecine-4-carboxylate], the MIC in the experiment with N. meningitidis 69480 came to 2 µg/mL.
